{"source": "paper PMC7866079", "about": "“Investigation of Receptor Heteromers Using NanoBRET Ligand Binding” (International Journal of Molecular Sciences, 2021)", "target": "T1, AT1 receptor (Homo sapiens, UniProt P30556)", "T1 construct": "host or cells: HEK293FT, transient transfection", "assay": "NanoBRET competition binding of TAMRA-AngII, cells expressing Nluc-AT1", "settings": "competitor at 1 μM", "description": "Figure 8 Competition binding of TAMRA-AngII to the AT1 receptor and the AT1-AT2 heteromer. Cells expressing Nluc-AT1 and treated with various concentrations of TAMRA-AngII (T-AngII) as stated, with increasing concentrations of olmesartan (Olm) (a,b). Cells expressing Nluc-AT1 and treated with various concentrations of TAMRA-AngII as stated, with increasing concentrations of PD 123319 (PD) (c,d). Cells expressing Nluc-AT1 and untagged AT2 and treated with 1 μM olmesartan, various concentrations of TAMRA-AngII as stated, and increasing concentrations of PD 123319 (e,f).\nThe relative BRET ratio was calculated by normalizing the data, as described in the figure legends. All individual experiments were conducted with duplicate wells."}
{"smiles": "CCCc1nc(C(C)(C)O)c(C(=O)O)n1Cc1ccc(-c2ccccc2-c2nnn[nH]2)cc1", "note": "[olmesartan]", "values": [{"measurement": "displacement of TAMRA-AngII binding to Nluc-AT1", "result": "complete displacement"}]}
